How the values were obtained:
[1] = test system: CAR+ T cells; test: CAR+ T cell enrichment during manufacturing in IL-2 or AP1903 (Example 13); format: cell-based; conditions: expanded in 20 ng/ml human IL-2 or AP1903 from Day 5; FIGS. 35B-E
Method: On Day 0, Purified T cells were activated in X-Vivo-15 medium (Lonza) supplemented with 100 IU/mL human IL-2 (Miltenyi Biotec), 10% FBS (Hyclone), and human T TransAct (Miltenyi Biotec, Cat #130-111-160, 1:100 dilution) in a Grex-24 plate (Wilson Wolf, cat #80192M). On Day 2, T cells were resuspended at 0.5 million cells per mL in 1 mL of T cell transduction media per well of a Grex-24 plate (Wilson Wolf, cat #80192M). Lentiviral supernatants were made as described above and transduction was performed on Day 2. On Day 5 when transduction was complete, cells were washed to remove residual human IL-2, resuspended in fresh T cell expansion media, i.e., X-Vivo-15 supplemented with 5% human AB serum (Gemini Bio), and expanded in either 20 ng/ml human IL-2, or the indicated concentrations of AP1903, in Grex-24 well plates. Cells were expanded into larger G-Rex vessels (Wilson Wolf) as needed using T cell expansion media. On Days 5, 9 and 15, the enrichment of CAR+ T cells was determined by detecting the percentage of T cells that bound a FITC-conjugated v5 tag monoclonal antibody (Thermo Fisher) using flow cytometry.

[2] = test system: CAR T cells; test: AP1903-driven growth assay: enrichment, memory and exhaustion phenotype of CAR T cells (Example 16B); format: cell-based; conditions: 2 weeks; exogenous recombinant cytokine 10 ng/mL; 20% CAR+ seeded; FIG. 43
Method: To test whether different cytotail outputs influenced the memory differentiation and long-term survival of CAR T cells, we performed an AP1903-driven growth assay. CAR T cells bearing the indicated chimeric receptors were thawed and the percentages of CAR+ cells were normalized to the sample with the lowest transduction efficiency (i.e. 20% CAR+) by adding non-transduced T cells. Cells were either left untreated, or treated with 500 ng/ml of AP1903, and in the absence of exogenous cytokines (unless specified in the case of positive controls) or target cells for 2 weeks. As positive controls, CAR T cells were alternatively supplemented with either exogenous recombinant IL-7 or IL-2 (10 ng/mL each; Miltenyi). On Day 5 of the AP1903-driven growth assay, supernatents were sampled for the analysis of cytokine release using the MSD assay (Meso Scale Discovery). At the end of the 2-week culture, the memory and exhaustion phenotypes of surviving CAR T cells were determined. Briefly, duplicate samples from each culture condition cells were harvested and stained using the Zombie NIR Fixable Viability Kit (Biolegend). […]

Substance: IL-2: human IL-2 (Miltenyi), exogenous recombinant cytokine [reference compound]
- percentage of CAR+ T cells (enrichment) during expansion [1]: maintained a stable percentage of CAR+ T cells
- percentage of CAR+ cells [2]: ~20%

— US12163169B2, “Inducible chimeric cytokine receptors” (Allogene Therapeutics, Inc., priority 2018, dated 2024)
